Source: article PMC3796951 (Psychopharmacology, 2012)

Chains of the proteins cited; added tags and fusions are not shown. Lines headed by an entry give the natural chain unless they say otherwise; changes in a name come on top.
UniProt P08908, whole entry: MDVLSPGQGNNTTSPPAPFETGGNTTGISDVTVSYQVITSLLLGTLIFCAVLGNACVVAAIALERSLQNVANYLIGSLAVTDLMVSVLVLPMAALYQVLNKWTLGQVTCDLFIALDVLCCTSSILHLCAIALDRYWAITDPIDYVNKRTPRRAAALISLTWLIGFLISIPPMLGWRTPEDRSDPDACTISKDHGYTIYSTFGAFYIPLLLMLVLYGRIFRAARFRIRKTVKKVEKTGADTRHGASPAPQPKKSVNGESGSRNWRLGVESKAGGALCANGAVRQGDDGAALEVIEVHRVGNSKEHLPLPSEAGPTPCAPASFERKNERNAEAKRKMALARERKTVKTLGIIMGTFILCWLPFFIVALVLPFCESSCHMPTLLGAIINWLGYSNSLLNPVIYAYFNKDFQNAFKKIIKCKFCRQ
UniProt P28221: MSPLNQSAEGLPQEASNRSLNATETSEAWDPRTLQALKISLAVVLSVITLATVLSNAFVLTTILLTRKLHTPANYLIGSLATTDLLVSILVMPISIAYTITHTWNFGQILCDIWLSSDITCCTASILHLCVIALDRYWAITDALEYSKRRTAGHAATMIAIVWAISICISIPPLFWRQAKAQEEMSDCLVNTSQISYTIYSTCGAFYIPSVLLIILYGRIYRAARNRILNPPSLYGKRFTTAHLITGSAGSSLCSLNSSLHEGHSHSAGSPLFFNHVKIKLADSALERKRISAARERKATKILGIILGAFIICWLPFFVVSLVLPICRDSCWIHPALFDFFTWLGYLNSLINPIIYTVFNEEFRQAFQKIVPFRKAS
UniProt P50406, whole entry: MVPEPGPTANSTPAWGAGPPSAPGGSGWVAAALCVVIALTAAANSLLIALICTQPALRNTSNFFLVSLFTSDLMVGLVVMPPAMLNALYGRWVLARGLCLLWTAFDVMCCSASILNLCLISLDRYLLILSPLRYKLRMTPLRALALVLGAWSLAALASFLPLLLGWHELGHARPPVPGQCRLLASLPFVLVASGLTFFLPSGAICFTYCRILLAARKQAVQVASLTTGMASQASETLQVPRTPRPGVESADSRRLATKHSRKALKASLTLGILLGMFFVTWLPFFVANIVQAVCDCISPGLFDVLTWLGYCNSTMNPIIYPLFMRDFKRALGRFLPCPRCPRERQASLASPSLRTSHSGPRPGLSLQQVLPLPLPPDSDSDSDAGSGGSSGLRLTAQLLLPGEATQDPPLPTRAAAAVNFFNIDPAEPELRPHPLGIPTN

Key:
[1] = target: 5-HT1A (Homo sapiens, UniProt P08908); assay: Radioligand binding; conditions: read-out: Ki nM (±SEM); [3H]8-OH-DPAT, cloned human receptor
[2] = target: T1, 5-HT2C (Rattus norvegicus, UniProt P08909); assay: Radioligand binding; conditions: read-out: Ki nM (±SEM); [3H]mesulergine, cloned rat receptor
T1 sequence (P08909 33-460): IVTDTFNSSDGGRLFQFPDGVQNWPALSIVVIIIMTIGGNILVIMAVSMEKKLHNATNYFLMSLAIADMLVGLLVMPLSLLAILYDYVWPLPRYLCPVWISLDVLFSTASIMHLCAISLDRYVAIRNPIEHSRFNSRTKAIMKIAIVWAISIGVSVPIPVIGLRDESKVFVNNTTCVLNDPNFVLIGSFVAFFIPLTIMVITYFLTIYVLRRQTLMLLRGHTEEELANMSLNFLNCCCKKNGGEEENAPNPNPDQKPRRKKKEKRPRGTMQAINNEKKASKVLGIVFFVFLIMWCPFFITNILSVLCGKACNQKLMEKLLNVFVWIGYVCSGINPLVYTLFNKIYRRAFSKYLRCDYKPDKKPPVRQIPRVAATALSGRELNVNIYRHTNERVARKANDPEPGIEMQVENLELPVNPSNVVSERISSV

[3] = target: 5-HT1D (Homo sapiens, UniProt P28221); conditions: read-out: Ki nM (±SEM); [3H]GR125743, cloned human receptor
[4] = target: 5-HT6 (Homo sapiens, UniProt P50406); assay: Radioligand binding; conditions: read-out: Ki nM (±SEM); [3H]LSD, cloned human receptor

## COc1ccc2[nH]cc(CCN(C)C)c2c1 [α,α,β,β-tetradeutero-5-MeO-DMT, α,α,β,β-Tetradeutero-5-methoxy-N,N-dimethyltryptamine (2:1) fumarate]
[1]
  Ki: 3 nM
[2]
  Ki: 286 nM
[3]
  Ki: 1.7 nM
[4]
  Ki: 10 nM

Structures can show the parent of a compound that is named as a salt.
